# AlphaSeq binding of Ab-14 heavy chain variants to a spike HR2 peptide

Reference: Li et al. 2023, doi:10.1038/s41467-023-39022-2. File: FLAb, binding data.

Binding partner: SARS-CoV-2 spike HR2 peptide, sequence PDVDLGDISGINAS.

Each scFv is VH, the linker GGGGSGGGGSGGGGS, VL, as in the parent Ab-14, and differs from it in the CDRs of the heavy chain only.
VH: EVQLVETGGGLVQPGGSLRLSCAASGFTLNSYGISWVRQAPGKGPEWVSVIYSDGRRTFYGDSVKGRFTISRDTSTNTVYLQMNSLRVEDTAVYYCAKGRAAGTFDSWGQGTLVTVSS
VL: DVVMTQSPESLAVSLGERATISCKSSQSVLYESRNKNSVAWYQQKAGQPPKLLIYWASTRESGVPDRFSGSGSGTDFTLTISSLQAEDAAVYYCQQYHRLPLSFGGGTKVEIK

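The variants were designed computationally from a first round of random CDR variants and then made and measured. Group labels follow the data file (Rand: our label for a block that the file lists under HC and that is probably the random mutants of the ten best first-round binders; En: ensemble of fine-tuned language models; HC: hill climbing; Gen: genetic algorithm; Gibbs: Gibbs sampling; a sequence that several methods proposed may carry one label only). The assay is AlphaSeq: two haploid yeast populations carry antibody and antigen on their surface. After mating in shaken culture at 30 °C for 16 h, diploids were selected and their barcode pairs sequenced. Scores were corrected for input abundance and mapped to Kd with protein pairs of known affinity run in the same pool. The assay was run in six technical replicates.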

Sequences are complete VH domains.
This list holds designs with more than six substitutions.
Numbers give log10(Kd / nM), so 0 is 1 nM and 3 is 1 µM. Smaller is tighter.
Replicates are averaged; those with no signal do not enter the mean.
An entry "ND" has no value in the source: the pair was not observed among the diploids in that replicate. This suggests poor binding but is not conclusive.
The list is sorted by this average, lowest first, undetected variants last.
A sequence measured in both rounds can read differently, since the two assays cover different ranges.
Three control strains display no target. For all heavy chain designs, 1% of the pairings with them gave a signal, with a median of 2.08 and one signal in twenty below 0.84, so weak values seen in few replicates may be background. For each scFv, signals with the empty controls are counted beside the result.
The parent sequence was in this pool as ten entries: three were never detected, three once, and four in most replicates, with averages from 0.34 to 2.37.
In the paper, a design with two or fewer of six values counts as a poor binder.

Variant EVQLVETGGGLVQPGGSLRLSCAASGFDLDEYGISWVRQAPGKGPEWVSVIYADGLRTAYADSVKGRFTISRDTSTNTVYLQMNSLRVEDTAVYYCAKGQNAGTFDVWGQGTLVTVSS [En_Gen] gave -0.03, -0.74, -0.67, -0.71, -1.12, -0.55 (mean -0.64; controls 0 of 18). For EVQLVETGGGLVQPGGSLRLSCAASGFDLNEYGISWVRQAPGKGPEWVSVIYADGRRTAYIDSVKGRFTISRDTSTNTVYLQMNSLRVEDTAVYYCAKGEVAGTFDNWGQGTLVTVSS [En_HC], the assay gave -0.13, -0.70, -0.20, -1.05, -0.57, -0.39 (mean -0.51; controls 0 of 18). Variant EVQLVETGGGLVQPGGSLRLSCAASGFDLDEYGISWVRQAPGKGPEWVSVIYADGSRTAYADSVKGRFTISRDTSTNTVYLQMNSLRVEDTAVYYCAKGANAGTFDVWGQGTLVTVSS [En_Gen] gave -0.33, -0.38, -0.91, -0.47, 0.69, -0.51 (mean -0.32; controls 0 of 18). Variant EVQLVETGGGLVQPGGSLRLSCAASGFDLNEYGISWVRQAPGKGPEWVSVIYADGMRTAYADKVKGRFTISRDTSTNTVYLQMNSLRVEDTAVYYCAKGETAGTFDVWGQGTLVTVSS [En_Gen] showed 0.14, -0.26, -0.51, -0.44, -0.14, -0.33 (mean -0.25; controls 0 of 18). For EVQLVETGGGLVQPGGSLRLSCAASGFDLNEYGISWVRQAPGKGPEWVSVIYADGVRTAYSDSVKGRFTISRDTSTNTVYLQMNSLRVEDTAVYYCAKGNVAGTFDIWGQGTLVTVSS [En_Gen], the assay gave -0.32, 0.12, -0.15, -0.62, -0.43, -0.07 (mean -0.24; controls 0 of 18). Variant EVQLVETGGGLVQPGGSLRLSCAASGFDLNEYGISWVRQAPGKGPEWVSVIYADGRRTAYTDSVKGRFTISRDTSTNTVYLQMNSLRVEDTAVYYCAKGQNAGTFDVWGQGTLVTVSS [En_Gen] gave -0.25, -0.35, -0.75, 0.65, -0.19, 0.22 (mean -0.11; controls 0 of 18). For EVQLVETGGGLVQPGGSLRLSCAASGFDLNEYGISWVRQAPGKGPEWVSVIYADGSRTYYADSVKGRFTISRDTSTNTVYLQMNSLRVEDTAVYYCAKGENAGTFDVWGQGTLVTVSS [En_Gen], the assay gave 0.14, 0.37, 0.03, -0.09, -0.18, 0.05 (mean 0.05; controls 0 of 18). For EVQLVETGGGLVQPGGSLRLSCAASGFDLDEYGISWVRQAPGKGPEWVSVIYADGMRTAYTDSVKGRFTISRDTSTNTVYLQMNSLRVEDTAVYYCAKGNVAGTFDLWGQGTLVTVSS [En_Gen], the assay gave 1.22, 0.79, 0.65, 0.63, 0.60, 1.28 (mean 0.86; controls 0 of 18).

With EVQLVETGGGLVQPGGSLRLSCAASGFYLNEYGISWVRQAPGKGPEWVSVIYADGIRSVYANKVKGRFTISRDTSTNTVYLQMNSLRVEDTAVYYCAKGNGAGLLDYWGQGTLVTVSS [En_Gibbs] the result was ND, 0.80, 0.82, ND, 0.85, 1.00 (mean 0.87; controls 0 of 18). Variant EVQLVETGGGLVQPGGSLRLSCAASGKKLDEYGISWVRQAPGKGPEWVSVIYADGKRKFYSNSVKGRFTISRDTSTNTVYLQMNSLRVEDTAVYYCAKGGKAGGTTVWGQGTLVTVSS [En_Gibbs] gave ND, 2.30, 2.45, ND, 2.74, 1.98 (mean 2.37; controls 0 of 18). For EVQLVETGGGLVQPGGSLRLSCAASGDNLEEYGISWVRQAPGKGPEWVSVIYADGFRSHYAEKVKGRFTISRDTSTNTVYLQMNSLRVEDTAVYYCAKGQQGGFFIKWGQGTLVTVSS [En_Gibbs], the assay gave ND, ND, ND, ND, ND, ND (controls 1 of 18). Variant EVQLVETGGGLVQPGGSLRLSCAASGFGLDEYGISWVRQAPGKGPEWVSVIYADGSRVFYADTVKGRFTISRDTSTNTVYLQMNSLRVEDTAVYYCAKGLLGKLTVVWGQGTLVTVSS [En_Gibbs] showed ND, ND, ND, ND, ND, ND (controls 0 of 18). Variant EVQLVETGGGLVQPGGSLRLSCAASGFTLNQYAISWVRQAPGKGPEWVSVIYSDGRETFYSDSVKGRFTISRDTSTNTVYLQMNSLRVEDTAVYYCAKGPAAGFFQSWGQGTLVTVSS [Rand] showed ND, ND, ND, ND, ND, ND (controls 0 of 18). Variant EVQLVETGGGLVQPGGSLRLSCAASGFDLNEYGISWVRQAPGKGPEWVSVIYADGRRTFYTDNVKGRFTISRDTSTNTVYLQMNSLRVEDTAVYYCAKGQVAGTFDVWGQGTLVTVSS [En_HC] showed ND, ND, ND, ND, ND, ND (controls 0 of 18).

Excerpt, the final 2 entries:

| VH | group | log10 Kd (nM) by replicate | mean, log10 nM | empty controls |
|---|---|---|---|---|
| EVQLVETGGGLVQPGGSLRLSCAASGFTLNQYAISWVRQAPGKGPEWVSVIYSDGRETFYSDSVKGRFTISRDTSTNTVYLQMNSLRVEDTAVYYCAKGPAAGFFQSWGQGTLVTVSS | Rand | ND, ND, ND, ND, ND, ND | ND | 0/18 |
| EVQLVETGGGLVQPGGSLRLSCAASGFDLNEYGISWVRQAPGKGPEWVSVIYADGRRTFYTDNVKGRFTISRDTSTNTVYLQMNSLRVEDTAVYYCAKGQVAGTFDVWGQGTLVTVSS | En_HC | ND, ND, ND, ND, ND, ND | ND | 0/18 |